Data as given in US20130045947A1, “PLA2ACTIVITY AS A MARKER FOR OVARIAN AND OTHER GYNECOLOGIC CANCERS” (INDIANA UNIVERSITY RESEARCH AND TECHNOLOGY CORPORATION, priority 2010, published 2013).

Key:
PLA2 [1] = test: PLA2 activity in frozen tissue sections (DBPC, in situ); assay type: biochemical, human; conditions: MAFP 40 μM, TAPC 250 μM, FIG. 7B
PLA2 [2] = test: DBPC-based PLA2 activity assay in human EOC ascites; assay type: biochemical
SKOV3 cells [3] = test: MTT proliferation assay, ascites-stimulated SKOV3 cells; assay type: cell-based, human; conditions: S1-stimulated; 100 μM MAFP
SKOV3 cells [4] = test: Cell migration assay, SKOV3 cells; assay type: cell-based, human; conditions: inhibitor in lower chamber; two different S1 fractions; FIG. 10A
EOC ascites = test: Ex vivo lipid generation in S1 and S4 ascites fractions (LC-MS); assay type: biochemical, human; conditions: for 16-0 LPC / 16:0 LPA / 18:0 LPA / 18:0 LPC / 18:1 LPA / 18:1 LPC / 18:2 LPA / 18:2 LPC / 20:4 LPA / 20:4 LPC / 22:6 LPA / 22:6 LPC: 48 hr + inhibitor 100 μM; for AA / total LPA / total LPC: 48 hrs
SKOV3 cells [5] = test: Migration of SKOV3 cells to RAW 264.7 macrophage CM; assay type: cell-based, human; conditions: MAFP 20 μM added to CM
SKOV3-Luc cells = test: Mouse xenograft model of EOC, MAFP treatment
[6] = A5 S1, 37° C., inhibitor 100 μM
[7] = A5 S4, 37° C., inhibitor 100 μM
[8] = A6 S1, 37° C., inhibitor 100 μM
[9] = A6 S4, 37° C., inhibitor 100 μM
[10] = A7 S1, 37° C., inhibitor 100 μM
[11] = A7 S4, 37° C., inhibitor 100 μM

CCCCC/C=C\C/C=C\C/C=C\C/C=C\CCCCOP(=O)(F)OC (centres unmarked)
sensitivity of tumor PLA2 activity to inhibitor (PLA2 [1]): sensitive
blocking PLA2 activity and migration/invasion-inducing activity of ascites S1 and S3 fractions, comparison (PLA2 [2]; MAFP compared with BEL): more effective than BEL
MAFP-sensitive (cPLA2- and iPLA2-like) share of natural PLA2 activity (PLA2 [2]; cell-free human EOC ascites, 10 specimens, MAFP 10 μM): > 98%
sensitivity of exosome-associated PLA2 activity to inhibitor (PLA2 [2]; exosomes isolated from human ascites (ExoQuick)): proved sensitive
proliferation of SKOV3 cells reduced by (SKOV3 cells [3]): 28.8±9.98%
effect on migration of SKOV3 cells induced by S1 fractions (SKOV3 cells [4]): dose-dependently reduced
16-0 LPC (EOC ascites; A5 S1, 37° C.): 39.3 µM
16:0 LPA (EOC ascites; A5 S1, 37° C.): 3.88 µM
18:0 LPA (EOC ascites; A5 S1, 37° C.): 0.61 µM
18:0 LPC (EOC ascites; A5 S1, 37° C.): 9.13 µM
18:1 LPA (EOC ascites; A5 S1, 37° C.): 1.72 µM
18:1 LPC (EOC ascites; A5 S1, 37° C.): 7.90 µM
18:2 LPA (EOC ascites; A5 S1, 37° C.): 3.46 µM
18:2 LPC (EOC ascites; A5 S1, 37° C.): 5.82 µM
20:4 LPA (EOC ascites; A5 S1, 37° C.): 3.83 µM
20:4 LPC (EOC ascites; A5 S1, 37° C.): 2.13 µM
22:6 LPA (EOC ascites; A5 S1, 37° C.): 0.63 µM
22:6 LPC (EOC ascites; A5 S1, 37° C.): 0.89 µM
AA (EOC ascites; [6]): 3.1 µM
total LPA (EOC ascites; [6]): 14.2 µM
total LPC (EOC ascites; [6]): 65.8 µM
16-0 LPC (EOC ascites; A5 S4, 37° C.): 38.2 µM
16:0 LPA (EOC ascites; A5 S4, 37° C.): 3.95 µM
18:0 LPA (EOC ascites; A5 S4, 37° C.): 0.61 µM
18:0 LPC (EOC ascites; A5 S4, 37° C.): 8.85 µM
18:1 LPA (EOC ascites; A5 S4, 37° C.): 1.79 µM
18:1 LPC (EOC ascites; A5 S4, 37° C.): 7.91 µM
18:2 LPA (EOC ascites; A5 S4, 37° C.): 3.49 µM
18:2 LPC (EOC ascites; A5 S4, 37° C.): 5.96 µM
20:4 LPA (EOC ascites; A5 S4, 37° C.): 3.57 µM
20:4 LPC (EOC ascites; A5 S4, 37° C.): 2.28 µM
22:6 LPA (EOC ascites; A5 S4, 37° C.): 0.61 µM
22:6 LPC (EOC ascites; A5 S4, 37° C.): 0.90 µM
total LPA (EOC ascites; [7]): 14.2 µM
total LPC (EOC ascites; [7]): 64.6 µM
16-0 LPC (EOC ascites; A6 S1, 37° C.): 33.7 µM
16:0 LPA (EOC ascites; A6 S1, 37° C.): 1.70 µM
18:0 LPA (EOC ascites; A6 S1, 37° C.): 0.31 µM
18:0 LPC (EOC ascites; A6 S1, 37° C.): 7.69 µM
18:1 LPA (EOC ascites; A6 S1, 37° C.): 0.66 µM
18:1 LPC (EOC ascites; A6 S1, 37° C.): 6.15 µM
18:2 LPA (EOC ascites; A6 S1, 37° C.): 0.83 µM
18:2 LPC (EOC ascites; A6 S1, 37° C.): 3.17 µM
20:4 LPA (EOC ascites; A6 S1, 37° C.): 2.94 µM
20:4 LPC (EOC ascites; A6 S1, 37° C.): 3.27 µM
22:6 LPA (EOC ascites; A6 S1, 37° C.): 0.34 µM
22:6 LPC (EOC ascites; A6 S1, 37° C.): 0.84 µM
AA (EOC ascites; [8]): 5.4 µM
total LPA (EOC ascites; [8]): 6.9 µM
total LPC (EOC ascites; [8]): 55.3 µM
16-0 LPC (EOC ascites; A6 S4, 37° C.): 33.7 µM
18:0 LPC (EOC ascites; A6 S4, 37° C.): 7.52 µM
18:1 LPC (EOC ascites; A6 S4, 37° C.): 6.12 µM
18:2 LPC (EOC ascites; A6 S4, 37° C.): 3.23 µM
20:4 LPC (EOC ascites; A6 S4, 37° C.): 3.18 µM
22:6 LPC (EOC ascites; A6 S4, 37° C.): 0.73 µM
total LPA (EOC ascites; [9]): 12.3 µM
total LPC (EOC ascites; [9]): 54.8 µM
16-0 LPC (EOC ascites; A7 S1, 37° C.): 26.1 µM
16:0 LPA (EOC ascites; A7 S1, 37° C.): 2.00 µM
18:0 LPA (EOC ascites; A7 S1, 37° C.): 0.48 µM
18:0 LPC (EOC ascites; A7 S1, 37° C.): 6.52 µM
18:1 LPA (EOC ascites; A7 S1, 37° C.): 1.31 µM
18:1 LPC (EOC ascites; A7 S1, 37° C.): 5.89 µM
18:2 LPA (EOC ascites; A7 S1, 37° C.): 2.40 µM
18:2 LPC (EOC ascites; A7 S1, 37° C.): 4.19 µM
20:4 LPA (EOC ascites; A7 S1, 37° C.): 5.06 µM
20:4 LPC (EOC ascites; A7 S1, 37° C.): 2.60 µM
22:6 LPA (EOC ascites; A7 S1, 37° C.): 0.61 µM
22:6 LPC (EOC ascites; A7 S1, 37° C.): 0.57 µM
AA (EOC ascites; [10]): 4.3 µM
total LPA (EOC ascites; [10]): 12.0 µM
total LPC (EOC ascites; [10]): 46.2 µM
16-0 LPC (EOC ascites; A7 S4, 37° C.): 27.8 µM
16:0 LPA (EOC ascites; A7 S4, 37° C.): 2.95 µM
18:0 LPA (EOC ascites; A7 S4, 37° C.): 0.66 µM
18:0 LPC (EOC ascites; A7 S4, 37° C.): 6.98 µM
18:1 LPA (EOC ascites; A7 S4, 37° C.): 1.83 µM
18:1 LPC (EOC ascites; A7 S4, 37° C.): 6.30 µM
18:2 LPA (EOC ascites; A7 S4, 37° C.): 3.24 µM
18:2 LPC (EOC ascites; A7 S4, 37° C.): 4.62 µM
20:4 LPA (EOC ascites; A7 S4, 37° C.): 6.57 µM
20:4 LPC (EOC ascites; A7 S4, 37° C.): 2.78 µM
22:6 LPA (EOC ascites; A7 S4, 37° C.): 0.72 µM
22:6 LPC (EOC ascites; A7 S4, 37° C.): 0.60 µM
total LPA (EOC ascites; [11]): 16.1 µM
total LPC (EOC ascites; [11]): 49.4 µM
inhibition of lipid generation (EOC ascites; S1 ascites fractions, 37° C., 48 hr, inhibitor 100 μM): 74-80%
block of the decrease in LPC (EOC ascites; ascites incubated ex vivo): effectively block
block of the increase in LPA (EOC ascites; ascites incubated ex vivo): effectively block
block of the increase in arachidonic acid (EOC ascites; ascites incubated ex vivo): but not
migration of SKOV3 cells to CM with inhibitor added (SKOV3 cells [5]): abrogated migration
tumor numbers and sizes (SKOV3-Luc cells; MAFP-treated versus vehicle-treated group, FIG. 11A): significantly reduced
tumor formation (SKOV3-Luc cells; NOD/SCID mice, SKOV3 i.p., MAFP i.p. from day 10, sacrifice 38-40 days): decreased tumor formation
inhibition of EOC metastasis (SKOV3-Luc cells; mouse xenograft models): highly effective
